Literature values as cited in publication PMC7473970, “Preformulation Studies of a Stable PTEN-PDZ Lipopeptide Able to Cross an In Vitro Blood-Brain-Barrier Model as a Potential Therapy for Alzheimer’s Disease” (Pharmaceutical Research, 2020).

Tested on: in vitro BBB model
Conditions: typical literature values; cited from earlier work
Text: […]. This domain is brain permeable in vitro and in vivo, on its own, as a drug conjugate or as a peptide-functionalized nanomedicine that can be loaded with a therapeutic cargo. Current permeability values indicate that at financially viable doses, 0.2% of an intravenously injected dose can reach the brain. This value may be further enhanced if the nasal route is selected for delivery with a ...

For “fluorescein isothiocyanate dextran [FITC-Dextran (3–5 kDa)]”, the “Papp, typical values” is listed as 0.2–7.3 × 10^−6 cm s^−1.
